Measured values as given in patent US8093209B2, “Methods of suppressing microglial activation and systemic inflammatory responses” (Cognosci, Incorporated, priority 2002, dated 2012).

Experiments:
[1] = tested on: lipoprotein receptor-related protein (LRP) receptor; assay: Receptor binding of 125I-apoE mimetic peptide to macrophages, competition with apoE; set-up: species or system mouse; details: radiolabeled peptide versus intact apoE
Description: Receptor Binding Studies. Macrophages were plated in 48-well cell culture plates (Costar) at 2.5×10^5 cells per well and incubated for 3 h at 37° C. in a humidified 5% CO2 incubator. The plates were then cooled to 4° C. and unbound cells were removed by three consecutive rinses with ice-cold Hanks' balanced salt solution containing 20 mM Hepes and 5% BSA, pH 7.4 (binding buffer). To quantify direct binding of the ^125I-apoE mimetic peptide, varying amounts of radiolabeled peptide were added to each well in the presence or absence of 200-fold molar excess of unlabeled peptide. Specific binding to cells was determined by subtracting the amount of ^125I-apoE peptide bound in the presence of excess unlabeled peptide (nonspecific binding) from the amount of ^125I-apoE peptide bound in the absence of excess unlabeled peptide (total binding). For competition studies, 50 nM radiolabeled peptide was added to each well in the presence or absence of varying amounts (31.25 nM-4 μM) of unlabeled ApoE2 or P. Cells were then incubated at 4° C. for 12-16 h. Unbound ligand was removed from the wells and the cell monolayer was rinsed three times with ice-cold binding buffer. Cells were then solubilized with 1 M NaOH, 0.5% SDS at room temperature for >5 h before the contents of each well was added to polystyrene tubes and counted in a LKB-Wallac, CliniGamma 1272 γ-counter (Finland).

[2] = tested on: thioglycollate-elicited peritoneal macrophages; assay: Competition between apoE and apoE mimetic peptide: [Ca2+]i on sequential stimulation; assay type: cell-based, mouse
Description: Competition between apoE and apoE mimetic peptide for binding site on the receptor. Changes in macrophage [Ca^2+]i upon stimulation with apoE and apoE-mimetic peptide were studied to determine whether these ligands bind to the same receptor. Fura-2/AM loaded macrophages were incubated overnight, plated on glass cover slips, stimulated with one ligand, and changes in [Ca^2+]i quantified. Cells were then stimulated with second ligand and Ca^2+ measurements repeated.

[3] = tested on: thioglycollate-elicited peritoneal macrophages; assay: [Ca2+]i in Fura-2/AM treated single macrophages, digital imaging microscopy (Example 10); assay type: cell-based, mouse
Description: Macrophage Harvesting. All experiments involving animals were first approved by the Duke Institutional Animal Care and Use Committee. Pathogen-free female C57BL/6 mice and ApoE deficient mice previously backcrossed 10 times to the C57BL/6 strain were obtained from the Jackson Laboratory (Bar Harbor, Me.). Thioglycollate-elicited peritoneal macrophages were harvested by peritoneal lavage using 10 ml of ice-cold Hanks' balanced salt solution containing 10 mM HEPES and 3.5 mM NaHCO3 (HHBSS), pH 7.4. The macrophages were pelleted by centrifugation at 4° C. at ˜800×g for 10 min and resuspended in RPMI 1640 media supplemented with 25 mM HEPES, 12.5 U/ml penicillin, 6.5 mg/ml streptomycin, and 5% fetal bovine serum. Cell viability was determined by the trypan blue exclusion method and was consistently greater then 95%.
Measurement of [Ca^2+]i in apoE and peptide treated macrophage. Changes in [Ca^2+]i levels in Fura-2/AM treated single cells were quantified using digital imaging microscopy in accordance with known techniques. Macrophages were plated on glass coverslips sitting in 35 mm Petri dishes at a density of 1.5×10^5 cells/cm^2, and allowed to adhere for 2 h in a humidified 5% CO2 incubator at 37° C. The non-adherent cells were aspirated and the monolayers were washed twice with HHBSS. 4 μM Fura-2/AM was incubated with the cells for thirty min in the dark at room temperature and [Ca^2+]i was subsequently measured using a digital imaging microscope in accordance with known techniques. After obtaining baseline measurements for 5 min, ligand (apoE, apoE mimetic peptide, or scrambled peptide) was added, and multiple [Ca^2+]i measurements were taken. To determine if signaling resulted from ligation of the ligand to LRP, cells were preincubated with a 1000-fold molar excess of RAP or 10 mM NiCl2, both of which inhibit ligand binding to LRP, for 5 min prior to stimulation with apoE or peptide. In experiments in which the involvement of a G protein was assessed, monolayers were incubated with 1 μg/ml pertussis toxin for 12 h at 37° C. and Ca^2+ measurements were made as stated above.

Ac-TEELRVRLASHLRKLRKRLL-amide [apoE-mimetic peptide]
competition for receptor binding [1]: competed with the intact protein for receptor binding | [Ca2+]i response on repeated or sequential ligand exposure (desensitization) [2]: marked attenuation in [Ca^2+]i response to subsequent peptide exposure | cells examined showing increase in [Ca2+]i [3]: 60-70% | concentration needed for [Ca2+]i responses compared to intact apoE, molar basis [3]: higher concentrations of peptide were necessary | increase in [Ca2+]i levels compared to buffer ([3]; macrophage): 2-3 fold
